The source of these data is patent US20080027145A1, “Therapeutic Molecules and Methods for Generating and/or Selecting Same” (priority 2004, published 2008).

By UniProt entry, the sequences of proteins in these tests, tags left out.
UniProt Q07817, whole entry: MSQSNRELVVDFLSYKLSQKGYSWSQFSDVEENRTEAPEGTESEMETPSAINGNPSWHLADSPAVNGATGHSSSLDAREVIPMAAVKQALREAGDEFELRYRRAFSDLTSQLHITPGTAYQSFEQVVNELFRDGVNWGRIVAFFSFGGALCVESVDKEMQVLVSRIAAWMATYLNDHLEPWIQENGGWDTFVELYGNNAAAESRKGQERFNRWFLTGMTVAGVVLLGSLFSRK
UniProt P10415, whole entry: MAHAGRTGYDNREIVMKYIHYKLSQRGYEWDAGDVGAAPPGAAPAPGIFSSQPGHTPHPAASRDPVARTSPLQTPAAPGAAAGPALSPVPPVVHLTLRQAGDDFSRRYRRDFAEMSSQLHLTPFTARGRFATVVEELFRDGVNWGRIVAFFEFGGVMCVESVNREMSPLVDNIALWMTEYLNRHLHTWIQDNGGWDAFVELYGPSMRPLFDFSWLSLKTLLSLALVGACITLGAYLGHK

For one test, the target named is T1, FLAG-tagged Bcl-xL (Homo sapiens, UniProt Q07817).
T1 construct: expressed in transfected cells; host or cells: HEK293T
The experiment in a line: Co-immunoprecipitation in transfected 293T cells. It is filed as binding. The conditions noted are these: tagged full-length proteins. From the text:
(§1) Equivalent ^35S-labeled lysates harvested from 293T cells were immunoprecipitated with antibodies to the HA, FLAG (FL) or control (C) tags.
(§2) The maintenance, transfection and metabolic labeling of the human embryonic kidney (HEK) 293T cells with ^35S-methionine/cysteine (NEN) as well as co-immunoprecipitation have been described (Huang et al., Supra; Moriishi et al., Proc Natl Acad Sci USA 96:9683-9688, 1999; O'Conner et al., Supra). Briefly, equivalent TCA-precipitable lysates were immunoprecipiated using the mouse monoclonal antibodies to HA (HA.11; CRP), FLAG (M2; Sigma) and control Glu-Glu (CRP) tags. The proteins were resolved by SDS:PAGE, transferred onto nitrocellulose membranes and detected by fluorography (Amplify; Amersham Biosciences).
(§3) To verify the in vitro findings, interactions of selected pairs of the full-length N-terminally tagged proteins were investigated in mammalian cells by co-immunoprecipitation. […] The cells were metabolically labeled with ^35S-methionine/cysteine to permit semi-quantitative assessment of any interaction between co-associating radiolabeled proteins.
(§4) To verify the in vitro findings, selected pairs of the full-length N-terminally tagged proteins associated in mammalian cells were investigated by co-immunoprecipitation. […]

The target of another test is T2, FLAG-tagged Bcl-2 (Homo sapiens, UniProt P10415).
T2 construct: expressed in transfected cells; host or cells: HEK293T
The experiment in a line: Co-immunoprecipitation in transfected 293T cells. The conditions noted are these: tagged full-length proteins. In kind it is binding.
Source text: as §1, §2, §3, §4

B1: Puma: full-length human BH3-only protein Puma expressed in cells (protein, UniProt Q9BXH1 1-193, looked up)
chain: MARARQEGSSPEPVEGLARDGPRPFPLGRLVPSAVSCGLCEPGLAAAPAAPTLLPAAYLCAPTAPPAVTAALGGSRWPGGPRSRPRGPRPDGPQPSLSLAEQHLESPVPSAPGALAGGPTQAAPGVRGEEEQWAREIGAQLRRMADDLNAQYERRRQEEQQRHRPSPWRVLYNLIMGLLPLPRGHRAPEMEPN
modifications: full-length
notes: full-length human BH3-only protein Puma expressed in cells
On to B1, for which, in the test with FLAG-tagged Bcl-xL, the “interaction with Bcl-xL by co-immunoprecipitation” value is “well”. Also, the “interaction with Bcl-2 by co-immunoprecipitation” value with FLAG-tagged Bcl-2 is listed as “well”.
